Where two headings read alike, the source gives them in different places.
Target: T1, Ornithine decarboxylase (ODC) (Rattus norvegicus, UniProt P09057)
T1 construct: is prepared from the livers of rats which have been injected with thioacetamide; from tissue; host or cells: rat liver (thioacetamide-induced)
T1 sequence (P09057 1-461): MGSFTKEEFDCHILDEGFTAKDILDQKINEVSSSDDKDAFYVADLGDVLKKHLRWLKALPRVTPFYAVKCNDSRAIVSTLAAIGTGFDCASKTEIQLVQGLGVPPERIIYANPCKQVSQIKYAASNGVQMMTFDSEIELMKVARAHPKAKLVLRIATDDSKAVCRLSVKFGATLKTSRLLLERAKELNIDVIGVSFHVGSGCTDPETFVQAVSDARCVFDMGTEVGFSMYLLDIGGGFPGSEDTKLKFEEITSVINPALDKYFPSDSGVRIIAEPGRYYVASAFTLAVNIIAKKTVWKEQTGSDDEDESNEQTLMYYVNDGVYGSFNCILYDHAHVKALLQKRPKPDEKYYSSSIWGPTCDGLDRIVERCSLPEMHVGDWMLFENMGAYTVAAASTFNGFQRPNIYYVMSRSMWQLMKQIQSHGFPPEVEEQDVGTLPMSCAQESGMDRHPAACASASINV
Assay: In vitro time-dependent inhibition of ornithine decarboxylase (14CO2 release from DL-[1-14C]ornithine; Kitz and Wilson analysis)
Assay type: biochemical, rats
Procedure: The stock solution of ODC is composed of proteins (16 mg/mL), sodium phosphate buffer (30 mM, pH 7.1), dithiothreitol (5 mM) and pyridoxal phosphate (0.1 mM). The specific activity of this stock solution is 0.12 nmol of CO2/min per mg of protein. For a typical experiment 320 µl of this stock solution is mixed at time 0 with 80 µl of a solution of the inhibitor in water and incubated at 37°. At different times 50 pl aliquots are transferred into a 1 mL assay medium containing sodium phosphate (30 mM, pH 7.1), dithiothreitol (5 mM), pyridoxal phosphate (0.1 mM), L-ornithine (0.081 pmol), and DL-[1-^14C] ornithine (0.043 pmol, 58 Ci/mol, Amersham) in a closed vessel in which a filter paper moistered with 50 µl hyamine hydroxide (1 M) is fitted. The reaction is allowed to proceed for 60 min at 37°C and then terminated by addition of 0.5 ml of 40% trichloroacetic acid. After an additional 30 min, the CO2 absorbed on the filter paper is counted in a standard scintillation cocktail.

Structure (SMILES)	Ki	Ki (apparent dissociation constant, ODC from livers of thioacetamide-treated rats, incubated at 37°, calculated by method of Kitz and Wilson, read-out: ODC KI)
C=C(CN)CC(N)CF (stereo not drawn) [B, 1-fluoro-2,5-diamino-4-methylene-pentane]	13 µM	–
NCC(=O)CC(N)CF (stereo not drawn) [C, 1-fluoro-2,5-diamino-4-oxo-pentane]	–	7.5 µM
C=C(CN)CC(N)C(F)F (stereo not drawn) [E, 1,1-difluoro-2,5-diamino-4-methylene-pentane]	60 µM	–

From patent EP0072761B1, “Decarboxylase-inhibiting fluorinated alkane diamine derivatives” (MERRELL TORAUDE ET COMPAGNIE, priority 1981, dated 1983)
